Common to all, as to type: cell-based
One assay concerns the target T1, α7 nAChR (Homo sapiens, UniProt P36544).
T1 construct: expressed in transfected cells; host or cells: Xenopus laevis oocytes injected with cRNA
Description: Bath application of test compound: modulation of ACh-evoked net charge responses in Xenopus oocytes. Conditions: read-out: IC50, inhibition of ACh-evoked responses by prolonged bath application. How it is done: (§1) We have extended this approach to defined receptor subtypes expressed in Xenopus oocytes. Experiments were conducted on cells expressing HS α4β2 (α4(2)β2(3)), LS α4β2 (α4(3)β2(2)), or α7 nAChR.
(§2) cDNA: Human nAChR receptor clones and concatamers were obtained from Dr. Jon Lindstrom (University of Pennsylvania, Philadelphia Pa.). The human RIC-3 clone, obtained from Dr. Millet Treinin (Hebrew University, Jerusalem Israel), was co-injected with α7 to improve the levels and speed of receptor expression.
(§3) Oocyte preparation: Oocytes were surgically removed from mature Xenopus laevis frogs and injected with 50 nl (5-20 ng) of appropriate nAChR subunit cRNAs as described previously (Horenstein et al., 2008).
(§4) Experiments were conducted using OpusXpress 6000A (Molecular Devices, Union City Calif.) and analyzed as described previously (Papke and Papke, 2002; Horenstein et al., 2008; Papke and Stokes, 2010).
(§5) Initial experiments were run for 50 minutes after the introduction of the experimental compounds into the bath.

Sequences of proteins named here, by UniProt entry; tags and fusion partners are left off. Residues count along the entry.
UniProt P36544, 23-502: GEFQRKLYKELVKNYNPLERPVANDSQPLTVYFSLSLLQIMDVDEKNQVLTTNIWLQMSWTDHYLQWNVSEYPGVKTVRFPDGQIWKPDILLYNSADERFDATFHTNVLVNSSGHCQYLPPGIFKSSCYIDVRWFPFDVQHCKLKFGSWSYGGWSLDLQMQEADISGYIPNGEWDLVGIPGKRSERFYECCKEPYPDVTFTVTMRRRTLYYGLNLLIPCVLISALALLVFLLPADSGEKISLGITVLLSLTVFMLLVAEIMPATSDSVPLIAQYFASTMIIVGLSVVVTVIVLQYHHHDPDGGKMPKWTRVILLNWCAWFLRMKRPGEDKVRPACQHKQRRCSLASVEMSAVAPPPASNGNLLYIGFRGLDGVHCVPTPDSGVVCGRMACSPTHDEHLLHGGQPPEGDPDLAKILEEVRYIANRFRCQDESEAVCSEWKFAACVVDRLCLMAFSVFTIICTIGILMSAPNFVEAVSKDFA
UniProt P17787, 26-502: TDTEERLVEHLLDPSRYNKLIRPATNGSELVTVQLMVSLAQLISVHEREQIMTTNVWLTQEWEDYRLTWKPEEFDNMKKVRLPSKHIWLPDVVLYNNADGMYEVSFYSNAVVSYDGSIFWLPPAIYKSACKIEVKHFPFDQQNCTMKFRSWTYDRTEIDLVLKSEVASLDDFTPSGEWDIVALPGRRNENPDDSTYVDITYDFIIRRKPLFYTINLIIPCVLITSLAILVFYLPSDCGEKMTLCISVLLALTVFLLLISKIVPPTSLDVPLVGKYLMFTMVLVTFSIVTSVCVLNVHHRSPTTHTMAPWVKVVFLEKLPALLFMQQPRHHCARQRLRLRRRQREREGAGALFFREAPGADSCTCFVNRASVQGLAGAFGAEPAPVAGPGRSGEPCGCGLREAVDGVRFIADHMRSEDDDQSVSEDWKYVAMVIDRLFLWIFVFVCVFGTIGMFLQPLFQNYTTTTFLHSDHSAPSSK
UniProt P43681, 29-627 limits assumed: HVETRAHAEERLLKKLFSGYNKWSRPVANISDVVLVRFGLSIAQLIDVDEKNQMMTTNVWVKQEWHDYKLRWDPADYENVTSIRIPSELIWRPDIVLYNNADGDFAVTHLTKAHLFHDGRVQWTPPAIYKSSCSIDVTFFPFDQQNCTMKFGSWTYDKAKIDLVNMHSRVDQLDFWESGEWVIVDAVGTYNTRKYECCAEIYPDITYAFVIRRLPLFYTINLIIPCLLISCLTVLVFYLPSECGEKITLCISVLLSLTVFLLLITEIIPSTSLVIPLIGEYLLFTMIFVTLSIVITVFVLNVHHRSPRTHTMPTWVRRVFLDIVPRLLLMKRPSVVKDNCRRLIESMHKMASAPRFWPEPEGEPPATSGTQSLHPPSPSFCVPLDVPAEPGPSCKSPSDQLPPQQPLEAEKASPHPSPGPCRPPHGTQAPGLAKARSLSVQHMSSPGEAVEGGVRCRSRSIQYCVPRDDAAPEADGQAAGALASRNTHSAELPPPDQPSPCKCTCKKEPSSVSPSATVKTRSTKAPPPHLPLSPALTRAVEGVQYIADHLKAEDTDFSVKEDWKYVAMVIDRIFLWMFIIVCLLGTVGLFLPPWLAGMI

Assay [1] concerns the target T2, LS α4β2 (α4(3)β2(2)) nAChR (Homo sapiens, UniProt P17787+P43681).
T2 construct: expressed in transfected cells; host or cells: Xenopus laevis oocytes injected with cRNA
The assay is described as follows: Bath application of test compound: inhibition of ACh-evoked peak currents in Xenopus oocytes. How it is done:
as §1, §2, §3, §4, §5

The target of assay [2] is T3, HS α4β2 (α4(2)β2(3)) nAChR (Homo sapiens, UniProt P17787+P43681).
T3 construct: expressed in transfected cells; host or cells: Xenopus laevis oocytes injected with cRNA
The assay is described as above. As for the experimental part: as §1, §2, §3, §4, §5

Bounds are passed on as bounds.

For the molecule `c1cnc2cc3c(cc2n1)C1CNCC3C1` [Varenicline, 7,8,9,10-tetrahydro-6,10-methano-6H-pyrazino (2,3-h)(3) benzazepine], the IC50 at α7 nAChR was 0.334 ± 0.132 µM.
For the molecule `C[N+](C)(C)CCO` [choline], the IC50 in assay [1] was over 1000 µM; in assay [2] it was 100 ± 80 µM.

As usually defined, the IC50 is the concentration that gives 50% inhibition.
